Data as given in ChEMBL document CHEMBL4402598, “Design and Synthesis of Bitopic 2-Phenylcyclopropylmethylamine (PCPMA) Derivatives as Selective Dopamine D3 Receptor Ligands” (J Med Chem, 2020).

Chains of the proteins cited; added tags and fusions are not shown. Lines headed by an entry give the natural chain unless they say otherwise; changes in a name come on top.
UniProt P28335: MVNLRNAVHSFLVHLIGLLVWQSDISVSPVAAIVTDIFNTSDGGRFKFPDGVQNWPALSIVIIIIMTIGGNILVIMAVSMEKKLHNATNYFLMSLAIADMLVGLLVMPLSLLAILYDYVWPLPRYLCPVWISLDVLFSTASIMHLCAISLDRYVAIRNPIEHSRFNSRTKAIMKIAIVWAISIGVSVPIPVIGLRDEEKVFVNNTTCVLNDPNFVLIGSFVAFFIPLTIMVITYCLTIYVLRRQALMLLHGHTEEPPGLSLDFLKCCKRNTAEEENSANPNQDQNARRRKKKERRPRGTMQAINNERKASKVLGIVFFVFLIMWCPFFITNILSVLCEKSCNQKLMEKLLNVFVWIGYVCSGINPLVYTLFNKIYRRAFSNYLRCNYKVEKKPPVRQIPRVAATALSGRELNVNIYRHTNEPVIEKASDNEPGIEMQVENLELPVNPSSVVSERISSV

Biological target: 5-hydroxytryptamine receptor 2C (Homo sapiens, UniProt P28335)
Assay: Agonist activity at human 5HT2C receptor stably expressed in HEK293 cells co-expressing Gq assessed as induction of calcium mobilization measured at 1 sec interval for 60 secs by Fluo-4 calcium dye based FLIPR assay relative to 5-HT
Type: functional, cell-based

Row | SMILES | Emax
1 | CCCN(CCCCNC(=O)c1ccc2ccccc2c1)C[C@H]1C[C@@H]1c1cccc(Cl)c1Cl.Cl | 30.3%
2 | CCCN(CCCCNC(=O)c1ccc(-c2ccccn2)cc1)C[C@H]1C[C@@H]1c1cccc(Cl)c1Cl.Cl | 51.9%
3 | CCCN(CCCCNC(=O)c1cc2ccccc2[nH]1)C[C@H]1C[C@@H]1c1cccc(Cl)c1Cl.Cl | 44.2%
